Source: PubChem BioAssay AID1508602 (The Scripps Research Institute Molecular Screening Center, 2020)
This is a selection; strong and weak results do not stand in their true shares. Active and inactive are the calls of the source. Rule as the data show it: active = activation above about 4.9%; inactive = the rest.

Protein sequences, listed by entry. Tags and fused reporters are not part of them. Lines headed by an entry give the natural chain unless they say otherwise; changes in a name come on top.
UniProt Q8TDV0: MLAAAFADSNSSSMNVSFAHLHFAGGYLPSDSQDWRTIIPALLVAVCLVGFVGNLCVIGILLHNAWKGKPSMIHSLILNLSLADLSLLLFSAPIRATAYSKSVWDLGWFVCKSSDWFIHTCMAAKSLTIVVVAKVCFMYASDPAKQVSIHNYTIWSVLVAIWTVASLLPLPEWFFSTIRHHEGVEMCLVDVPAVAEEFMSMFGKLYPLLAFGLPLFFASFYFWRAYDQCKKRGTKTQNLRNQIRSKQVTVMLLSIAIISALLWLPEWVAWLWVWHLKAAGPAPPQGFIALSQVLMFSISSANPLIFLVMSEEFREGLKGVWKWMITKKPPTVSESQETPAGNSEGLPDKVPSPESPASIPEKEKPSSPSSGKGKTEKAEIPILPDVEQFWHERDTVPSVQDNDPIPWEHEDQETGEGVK

target: G-protein coupled receptor 151 (Homo sapiens) (UniProt Q8TDV0); test: activators of human GPR151, primary screen, cell-based, PathHunter beta-arrestin, luminescence (AID 1508602); details: PathHunter beta-arrestin GPR151 cells, at 11.2 µM, stronger effect = higher value;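 also: 0% = median of compound wells and 100% = cells with positive control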

| SMILES | activation |
| --- | --- |
| Cc1ccc2nc(NCCCl)[nH]c2c1 | inactive: -2.27% |
| CCOP(=O)(OCC)C(NC(=O)OC)C(Cl)(Cl)Cl (stereo unspecified) | inactive: 0.903% |
| CCOC(=O)c1ccc(NC2=NCC(CBr)S2)cc1 (stereo unspecified) | inactive: -0.681% |
| O=C(NNC1=NCC(CBr)S1)c1ccccc1 (stereo unspecified) | inactive: -0.411% |
| CCOP1(=O)O/C(=C\Cl)CN1c1ccccc1 (stereo unspecified) | inactive: -2.03% |
| O=[N+]([O-])c1ccc(NCCCCNc2ccc([N+](=O)[O-])cc2[N+](=O)[O-])c([N+](=O)[O-])c1 | inactive: 1.36% |
| O=P1(Nc2nc3ccc(Cl)cc3s2)COc2ccccc2O1 (stereo unspecified) | inactive: 0.506% |
| Cc1ccc([N+](=O)[O-])c2no[n+]([O-])c12 | inactive: -1.55% |
| COC(=O)C(CC(C)C)NC(=O)NP(=O)(Oc1ccccc1)Oc1ccccc1 (stereo unspecified) | inactive: -1.49% |
| Cc1cc(NC2=NC3C(C(=O)N(C)C(=O)N3C)N2C)n(-c2ccccc2)n1 (stereo unspecified) | inactive: -2.85% |
| O=[N+]([O-])c1cc([N+](=O)[O-])c(N(CC(O)CO)c2ccccc2)c([N+](=O)[O-])c1 (stereo unspecified) | inactive: -1.1% |
| O=C(c1cccnc1)N(Cc1ccco1)C1CCN(CCc2ccccn2)CC1 | inactive: 1.81% |
| CCOP(=O)(OCC)C(OC(=O)C(Cl)(Cl)Cl)=C(Cl)Cl | inactive: 1.68% |
| CNc1c([N+](=O)[O-])cc([N+](=O)[O-])c2nonc12 | inactive: -1.49% |
| O=P1(Nc2nncs2)C=C(c2ccccc2)SC(c2ccccc2)=C1 | inactive: -0.832% |
| CN(C)c1ccc(/[N+]([O-])=C/c2c([N+](=O)[O-])cc([N+](=O)[O-])cc2[N+](=O)[O-])cc1 | inactive: -1.68% |
| CCOP(=S)(NN(CCCl)c1ccccc1)OCC | inactive: 1.33% |
| CN(C(=O)Cc1ccc(Cl)c(Cl)c1)[C@@H]1CCCC[C@@H]1N1CCCC1 | inactive: 2.5% |
| O=C(c1ccco1)N(Cc1cccnc1)C1CCN(CCc2ccccn2)CC1 | inactive: -0.354% |
| CC(=O)O[C@H]1CN2CCC1[C@@H](c1ccccc1)C2 (stereo partly specified) | inactive: 0.248% |
| CC(=O)N(Cc1ccco1)C1CCN(CCc2ccccn2)CC1 | inactive: -1.33% |
| O=c1c2cc([N+](=O)[O-])ccc2[nH]c2c([N+](=O)[O-])cc([N+](=O)[O-])cc12 | inactive: -1.08% |
| COc1ccc([N+](=O)[O-])cc1NC(=O)c1ccc([N+](=O)[O-])cc1[N+](=O)[O-] | inactive: -0.315% |

| SMILES | activation |
| --- | --- |
| Cc1c([N+](=O)[O-])cc(C(=O)c2cc([N+](=O)[O-])c(C)c([N+](=O)[O-])c2)cc1[N+](=O)[O-] | inactive: -1.46% |
| CN(C)c1ccc2c(c1)N1Cc3ccccc3C1=NP2(=O)c1ccccc1 (stereo unspecified) | inactive: 0.328% |
| CC(C)OP(=O)(OC(C)C)C(C)N (stereo unspecified) | inactive: -1.07% |
| CCOP(=O)(OCC)C(=O)c1ccccc1I | inactive: 1.35% |
| O=C(Nc1cccc(F)c1)N(Cc1cccnc1)C1CCN(CCc2cccs2)CC1 | active: 5.2% |
| O=[N+]([O-])c1ccc(N/N=C/c2ccc([N+](=O)[O-])o2)c([N+](=O)[O-])c1 | inactive: -0.614% |
| O=P1(c2ccccc2)N=C(c2ccccc2)NC(C(Cl)(Cl)Cl)=N1 (stereo unspecified) | inactive: 0.8% |
| COC(=O)N(c1ccccc1)P1(=S)OCC(C)O1 (stereo unspecified) | inactive: -0.264% |
| O=C(c1cccc([N+](=O)[O-])c1)c1ccc([N+](=O)[O-])c([N+](=O)[O-])c1 | inactive: 1.6% |
| O=C(NNc1ccc([N+](=O)[O-])cc1[N+](=O)[O-])c1cccc([N+](=O)[O-])c1 | inactive: -0.85% |
| ClC1CSc2nc3ccccc3n2C1 (stereo unspecified) | inactive: -0.511% |
| O=C(COC(=O)C(O)(c1ccccc1)c1ccccc1)NC12CC3CC(CC(C3)C1)C2 | inactive: -2.07% |
| COC(=O)N(c1ccccc1)P1OCC(C)O1 (stereo unspecified) | inactive: -1.04% |
| CCOC(=O)C(C)NC(=O)CSP(=O)(OCC)OCC (stereo unspecified) | inactive: -0.812% |
| O=C(OC1CN2CCC1CC2)c1cccc(Cl)c1 (stereo unspecified) | inactive: -2.02% |
| CCOc1ccc(S(=O)(=O)N(CCCl)CCCl)cc1 | inactive: 0.0133% |
| CC(C)OP(=O)(OC(C)C)N1CCCCC1 | inactive: -0.591% |
| Nc1nonc1OCc1nonc1COc1nonc1N | inactive: 0.951% |
| BrCC1Cn2c(nnc2-c2cccnc2)S1 (stereo unspecified) | inactive: 0.13% |
| COc1ccc(/C=C2/C(=O)NC(=O)N(Cc3ccco3)C2=O)c(OC)c1 | inactive: 0.88% |
| O=C(Nc1c(Cl)cc([N+](=O)[O-])cc1[N+](=O)[O-])c1ccc([N+](=O)[O-])cc1 | inactive: 1.73% |
| O=C(Nc1cccc(F)c1)N(Cc1ccco1)C1CCN(CCc2ccccn2)CC1 | inactive: -0.1% |
| O=P(/C=C(\Cl)c1ccccc1)(/C=C(\Cl)c1ccccc1)Nc1nncs1 | inactive: 3.06% |

| SMILES | activation |
| --- | --- |
| CC(C)NC(=O)N(Cc1ccco1)C1CCN(CCc2cccs2)CC1 | inactive: -0.0554% |
| CC1Cc2ccccc2N1C(=O)COC(=O)C(O)(c1ccccc1)c1ccccc1 (stereo unspecified) | inactive: -0.276% |
| CNC(=O)c1nsnc1NCCCl | inactive: -0.71% |
| O=C(N/N=C/c1ccc([N+](=O)[O-])o1)c1cc([N+](=O)[O-])cc([N+](=O)[O-])c1 | inactive: -0.82% |
| CCOP(=O)(Nc1cccc(F)c1)OCC | inactive: 2.03% |
| CC(C)NC(=O)N(Cc1cccnc1)C1CCN(CCc2cccs2)CC1 | inactive: -1.47% |
| COc1ccc(S(=O)(=O)N(CCCl)CCCl)cc1 | inactive: 0.255% |
| O=[N+]([O-])c1ccc(N/N=C/C=C/c2ccc([N+](=O)[O-])o2)c([N+](=O)[O-])c1 | inactive: 0.306% |
| COc1ccc(CCN2CCC(N(Cc3ccco3)C(=O)c3cccc(C#N)c3)CC2)cc1 | inactive: 3.03% |
| Cc1ccc(NP(=O)(OCC(C)C)OCC(C)C)nc1 | inactive: -0.55% |
| C/C(=N\Nc1ccc([N+](=O)[O-])cc1[N+](=O)[O-])c1ccc([N+](=O)[O-])cc1 | inactive: -1.85% |
| O=C(COc1ccccc1[N+](=O)[O-])N/N=C/c1cc([N+](=O)[O-])cc([N+](=O)[O-])c1O | inactive: 0.379% |
| O=C(Nc1cccc(F)c1)N(Cc1ccco1)C1CCN(CCc2cccs2)CC1 | inactive: 2.44% |
| O=C(COC(=O)C(O)(c1ccccc1)c1ccccc1)NCCN1C(=O)CSC1=O | inactive: -0.768% |
| CC(=O)OC1CN2CCC1C(c1ccccc1)C2 (stereo unspecified) | inactive: -0.756% |
| O=[N+]([O-])c1cc([N+](=O)[O-])c(NCCCO)c([N+](=O)[O-])c1 | inactive: 1.9% |
| CCc1cc2c[n+](C3CCCCC3)sc2s1 | inactive: -1.49% |
| COc1ccccc1OP(=O)(Nc1ccccn1)Oc1ccccc1OC | inactive: -0.407% |
| COP(=O)(NS(=O)(=O)c1ccc(Cl)cc1)OC | inactive: -0.983% |
| O=C(OC1CN2CCC1CC2)C1COc2ccccc2O1 (stereo unspecified) | inactive: -1.72% |
| O=C(CCNCCCl)c1ccccc1 | inactive: 0.227% |
| O=C(N/N=C/c1ccc([N+](=O)[O-])cc1)c1cc([N+](=O)[O-])cc([N+](=O)[O-])c1 | inactive: 0.993% |
| Cc1nc(Nc2cccc([N+](=O)[O-])c2)nc(Nc2cccc([N+](=O)[O-])c2)c1[N+](=O)[O-] | inactive: 0.505% |

| SMILES | activation |
| --- | --- |
| Cc1cc(NP2(=O)C=C(c3ccccc3)SC(c3ccccc3)=C2)n[nH]1 | inactive: -1.45% |
| O=P(Nc1ccccn1)(OCC(F)(F)F)Oc1ccccc1 (stereo unspecified) | inactive: -0.813% |
| CCCCOP1(=S)N=C2c3ccccc3CN2c2cc(N(C)C)ccc21 (stereo unspecified) | inactive: 0.245% |
| CCOP(=O)(Nc1cccc(C(F)(F)F)c1)OCC | inactive: 0.644% |
| Cc1cc(C)nc(NNc2c([N+](=O)[O-])cc([N+](=O)[O-])c(C)c2[N+](=O)[O-])n1 | inactive: -0.0701% |
| Cc1ccc(S(=O)(=O)N2C(=O)CSC2C(Cl)(Cl)Cl)cc1 (stereo unspecified) | inactive: 1.28% |
| CC(C)OC(=O)NC(SC#N)C(Cl)(Cl)Cl (stereo unspecified) | inactive: 0.834% |
| N=C(N)SCC(Br)CN1C(=O)c2ccccc2C1=O (stereo unspecified) | inactive: -0.722% |
| O=P(/N=C(/N1CCOCC1)C(Cl)(Cl)Cl)(N1CCOCC1)N1CCOCC1 | inactive: 0.0648% |
| O=C(COC(=O)C(O)(c1ccccc1)c1ccccc1)NCc1cccs1 | inactive: -0.135% |
| O=C(OC1CN2CCC1CC2)c1cccc(F)c1 (stereo unspecified) | inactive: -0.751% |
| CCc1nc2c(n1)c1c(non1O)c1c2no[n+]1[O-] | inactive: 2.39% |
| CCOC(=O)c1ccccc1OP(=O)(OCC)SCC(C)C (stereo unspecified) | inactive: 0.678% |
| Cc1c([N+](=O)[O-])c([N+](=O)[O-])nn1CC(=O)Nc1cc(O)cc([N+](=O)[O-])c1 | inactive: 1.06% |
| Cc1cccc(NC2=NCC(CBr)S2)c1 (stereo unspecified) | inactive: -2.5% |
| Cc1c([N+](=O)[O-])cc(C(=O)Nc2ccc([N+](=O)[O-])cc2)cc1[N+](=O)[O-] | inactive: -0.0466% |
| CCOP(=O)(Nc1ccc(Br)cc1)OCC | inactive: -0.225% |
| CCCCOP(=O)(OCCCC)N(CC)CC | inactive: -0.316% |
| O=C(c1ccc2c(c1)OCO2)N(Cc1ccco1)C1CCN(CCc2ccccn2)CC1 | inactive: -0.601% |
| O=[N+]([O-])c1cc(/C=N/N=C/c2cc([N+](=O)[O-])cc([N+](=O)[O-])c2O)c(O)c([N+](=O)[O-])c1 | inactive: 1.8% |
| C[n+]1c2n(c3ccccc31)CC(Cl)CS2 (stereo unspecified) | inactive: -0.569% |
| CC(C)(C)C(=O)NC(Sc1ccncn1)C(Cl)(Cl)Cl (stereo unspecified) | inactive: 0.163% |
